Each compound was assayed on PC12 cells expressing G93A SOD1-YFP.
Type: cell-based

Compound | activity in cytotoxicity protection assay
CC1C(=O)N(CCc2ccccc2)C(=O)N(CCc2ccccc2)C1=O [Compound 37, 5-Methyl-1,3-diphenethylpyrimidine-2,4,6(1H,3H,5H)-trione] | no activity
O=C1C(=CC2CCCCC2)C(=O)N(CCc2ccccc2)C(=O)N1CCc1ccccc1 [Compound 39, 5-(Cyclohexylmethylene)-1,3-diphenethylpyrimidine-2,4,6(1H,3H,5H)-trione] | devoid of activity
CC1(C)C(=O)N(CCc2ccccc2)C(=O)N(CCc2ccccc2)C1=O [Compound 38, 5,5-Dimethyl-1,3-diphenethylpyrimidine-2,4,6(1H,3H,5H)-trione] | no activity

From publication PMC3074252 (Journal of medicinal chemistry, 2011)
